# Screening results as filed in PubChem BioAssay.
# Rango-impB inh – prevents formation of the Rango-importin beta complex. Q14974. Rango CFP/YFP FRET sensor + importin beta, 45 min. Potency, µM (series often up to 92.2 µM), for the others: at the top dose inhibition of complex formation. hit rate 0.031% among 340,000. AID 540263; calls by dose curve;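 note: 0% = DMSO wells and 100% = buffer wells lacking importin beta; nearly all actives have a fitted effect of over 15% in size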
#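 FRET biosensor Rango (snurportin 1 IBB between N-terminal EYFP and C-terminal Cerulean), 50 nM in PBS/1 mM DTT/0.02% Tween-20/0.1% BSA, preincubated 5 min RT with compound; 0.125 microM importin beta added, 45 min RT, CFP/YFP FRET ratio read.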
# EPAC1 antagonist – EPAC1 (human) antagonism. O95398. EPAC1 GEF assay, Rap1b-BODIPY-GDP exchange fluorescence. Potency, µM (highest dose often 115 µM), for the others: top-dose activity change, negative = inhibition, usual class: inhibitors. hit rate 0.14% among 360,000. AID 720709;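 note: plate controls were vehicle for no effect and positive control for full effect; nearly all actives have a fitted effect of over 50% in size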
# EPAC2 antag – antagonists of human EPAC2 | hit rate 0.18% among 360,000 | Q8WZA2 | Potency, µM (series often up to 114 µM), inactives show top-dose activity, negative = inhibition, actives largely listed as inhibitors | EPAC2 GEF exchange of Rap1B-BODIPY-GDP, fluorescence; note: % is set by controls: 0 for no effect and ±100 for the full control effect; nearly all actives have a fitted effect of over 45% in size
# Rango release inh – inhibitors of RanGTP-induced Rango-importin beta complex dissociation; O95149+P62826; Biochemical FRET Rango-importin beta, RanGTP-induced dissociation; Potency, µM (titrated, usually from 46.1 µM), for the others: at the top dose activity change, negative = inhibition; hit rate 0.071% among 340,000; AID 540253; calls by dose curve; note: % of control where 0% means no effect; nearly all actives have a fitted effect of over 45% in size
#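 Recombinant Rango FRET biosensor (EYFP–snurportin 1 IBB–cerulean CFP10) at 0.1 uM premixed with 0.25 uM importin beta in PBS, 1 mM DTT, 0.02% Tween-20, 0.1% BSA. Compound added 5 min; RanGTP-RCC1 (0.6 uM Ran, 2 mM GTP, 0.2 uM RCC1) then triggers release, read at 45 min.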
# EPAC2 agonist – agonists of human EPAC2 (RAPGEF4); Q8WZA2; EPAC2 activation, biochemical qHTS; response scale: 100% = 6.5 mM cAMP response; Potency, µM (highest dose often 154 µM), without a hit: at the top dose activation, usual class: activators; hit rate 0.079% among 360,000; note: nearly all actives have a fitted effect of over 50% in size
#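 Each well held 100 nM EPAC2, 250 nM RAP1B-BODIPY-GDP and 50 uM GDP. Fluorescence, read at 5-min intervals to 30 min, was referenced to a 6.5 mM cAMP positive control.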
# EPAC1 agonist – activates human EPAC1 exchange factor | O95398 | EPAC1 agonist qHTS, biochemical assay; response scale: 100% = response to 6.5 mM cAMP | Potency, µM (highest dose often 154 µM), without a hit: at the top dose activation, hits mostly activators | hit rate 0.073% among 360,000 | AID 720707; note: nearly all actives have a fitted effect of over 60% in size
#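 Read-out is the fluorescence drop as BODIPY-GDP leaves Rap1B (480 nm excitation, 540 nm emission), recorded every 5 minutes over 30 minutes. Reactions held 100 nM EPAC1, 250 nM Rap1B–BODIPY-GDP and 50 uM GDP, with 6.5 mM cAMP setting full activation.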
# An asterisk follows results filed as active; ? = inconclusive; / = not tested or not shown; [ ] = dose if it differs, or a comment. A selection: hits, their analogues and other compounds. The true share with any hit is near 0.48%. Unless noted, calls come from the whole dose curve; as a rule, active = well fitted curve in the direction sought with a large enough effect; inconclusive = small, poorly fitted or top-dose-only effect, or another doubt; inactive = no such curve, though single readings can be large; an effect the other way counts as inactive or inconclusive. Potency is the fitted concentration of half-maximal effect.
# Every second line gives: Rango-impB inh, EPAC1 antagonist, EPAC2 antag, Rango release inh, EPAC2 agonist, EPAC1 agonist
> C(=C\c1nccc2c1[nH]c1ccccc12)/c1ccccc1
    ?, -11.4%, -14.0%, 16.4µM*, 20.5%, 19.8%
> O=C(O)c1cc2ccc(O)cc2oc1=O
    /, -19.2%, -1.4%, /, 3.4%, -7.5%
> C/C(=N\NC(=O)CC#N)c1cc2ccc(O)cc2oc1=O
    ?, 13.2%, 241.0%, ?, 112µM*, 10.8%
> COCCNC(=O)C1CCCN(C(=O)c2ccc3sccc3c2)CC1 (stereo unspecified)
    /, -8.9%, -7.0%, /, -2.0%, -0.7%
> CCN(CC)c1nc(N)c2c(N)nc3c(c2c1C#N)CC(c1ccccc1)O3 (stereo unspecified)
    ?, -1.1%, -8.8%, -16.1%, 8.5%, 10.0%
> CCN(CC)c1nc(N)c2c(N)n(-c3ccccc3C)c(=S)c(C#N)c2c1C#N
    ?, 89.1µM*, -6.6%, ?, -9.8%, -23.2%
> CCCCC[C@H](C)N1C[C@@H](COCc2ccccc2)Oc2cc(N3CC[C@H](O)C3)ccc2S1(=O)=O
    /, -22.7%, ?, /, 2.9%, -28.6%
> O=C1NN(c2ccc(F)c(Cl)c2)C(=O)/C1=C\c1cccc(OC(=O)c2cccs2)c1
    0.1%, 35.5µM*, 1.1%, -7.5%, 4.8%, -13.4%
> CC(C)=C1C(=O)NN(c2ccc(F)c(Cl)c2)C1=O
    -2.8%, -5.7%, -2.9%, -16.3%, 4.1%, 11.2%
> CCCCN(Cc1ccccc1)S(=O)(=O)c1ccc2[nH]c(=O)oc2c1
    -0.5%, 4.7%, -6.7%, -0.1%, 4.4%, 6.7%
> CCNc1ccc2noc3c2c1C(=O)c1ccccc1-3
    ?, 415.0%, 152.0%, ?, 89.1µM*, 112µM*
> Cc1cccc(N2CCN(S(=O)(=O)c3ccc(S(=O)(=O)N4CCCC4)cc3)CC2)c1C
    5.3%, -11.2%, 2.1%, 6.6%, -10.8%, -8.1%
> Cc1cccc(N2CCN(S(=O)(=O)c3ccc4c(c3)OCCO4)CC2)c1C
    ?, 1.8%, 0.8%, 18.4µM*[inhibitor], 12.8%, 0.6%
> COCCCn1c(=O)/c(=C\c2ccccc2OC(C)C)s/c1=C(/C#N)C(=O)Nc1ccc(C(=O)O)cc1
    ?, 19.2%, -6.6%, ?, -4.9%, 112µM*
> CCOC(=O)C1CCCN(c2nc3ccccc3nc2C(C#N)C(=O)OC(C)C)C1 (stereo unspecified)
    ?, 89.1µM*, -29.0%, ?, -2.1%, -54.4%
> CCCCCCOC(=O)C(C#N)c1nc2ccccc2nc1N1CCCCC1 (stereo unspecified)
    3.4%, 94.6%, -3.6%, -6.8%, 18.9%, 112µM*
> CCOC(=O)C1CCN(c2nc3ccccc3nc2C(C#N)C(=O)OC(C)C)CC1 (stereo unspecified)
    ?, 1.5%, -27.2%, ?, -70.0%, -1.6%
> CCN1CCC(O)(/C=C/c2ccc(C(C)C)cc2)C(C(=O)/C=C/c2ccc(C(C)C)cc2)C1 (stereo unspecified)
    4.6%, -16.1%, ?, -24.5%, -12.3%, 3.1%
> CCOC(=O)C1(C)CCCN(C(=O)c2ccc(OC)cc2OC)C1 (stereo unspecified)
    /, 5.1%, 3.4%, /, 1.8%, 7.8%
> CC1=Nc2ccccc2/C1=C\c1nc(-c2ccc(F)cc2)oc1O
    ?, 25.6%, 47.4%, ?, ?, 89.1µM*

# Ordered by heavy-atom count (ascending): 3 of the compounds above.
# Every second line gives: Rango-impB inh, EPAC1 antagonist, EPAC2 antag, Rango release inh, EPAC2 agonist, EPAC1 agonist
> COCCNC(=O)C1CCCN(C(=O)c2ccc3sccc3c2)CC1 (stereo unspecified)
    /, -8.9%, -7.0%, /, -2.0%, -0.7%
> CCN(CC)c1nc(N)c2c(N)nc3c(c2c1C#N)CC(c1ccccc1)O3 (stereo unspecified)
    ?, -1.1%, -8.8%, -16.1%, 8.5%, 10.0%
> CCN1CCC(O)(/C=C/c2ccc(C(C)C)cc2)C(C(=O)/C=C/c2ccc(C(C)C)cc2)C1 (stereo unspecified)
    4.6%, -16.1%, ?, -24.5%, -12.3%, 3.1%

# Later entries
# Every second line gives: Rango-impB inh, EPAC1 antagonist, EPAC2 antag, Rango release inh, EPAC2 agonist, EPAC1 agonist
> COc1ccc2oc(C(=O)Nc3ccc(N4CCOCC4)cc3)c(C)c2c1
    ?, ?, 9.5%, -17.9%, -2.3%, 63.1µM*
> O=C(Nc1ccc2ccccc2c1)C(c1ccccc1F)n1c(=O)c(-c2cc3ccccc3[nH]2)nc2ccccc21 (stereo unspecified)
    /, 1.5%, 16.9%, /, 4.3%, 9.3%
> CN1/C(=C/c2cccc[n+]2C)Sc2ccccc21
    ?, 1.5%, 0.5%, 11.6µM*, 8.9%, 5.1%
> Cc1ccc2c(c1)N(C)/C(=C/c1cccc[n+]1C)S2
    ?, 2.2%, 8.6%, ?, 11.5%, 7.2%
> CCCCNC(=O)C(NC(=O)c1cnc(C)cn1)C(=O)c1ccccc1 (stereo unspecified)
    /, 8.4%, 11.1%, /, 5.5%, 4.9%
> O=c1ccc(-c2ccccc2)nn1Cc1ccc(Cl)cc1
    4.3%, -5.7%, 35.5µM*, -9.1%, 9.1%, 5.1%
> O=S(=O)(O)c1cccc(N=Nc2c(O)ccc3ccccc23)c1
    ?, -12.8%, 35.5µM*, 40.8%, -3.4%, -2.1%
> COc1cc(CCN(C(C)=O)C2C(=O)Nc3ccccc3N=C2c2ccc3c(c2)OCO3)cc(OC)c1 (stereo unspecified)
    /, -10.9%, 12.9%, /, 4.1%, -4.9%
> COc1cc(/C=C(\C#N)c2nc3ccc(C)cc3[nH]2)cc([N+](=O)[O-])c1O
    ?, 28.2µM*, ?, -1.7%, 6.3%, -2.8%
> CCN(CC)c1ccc2cc(C=O)c(=O)oc2c1
    ?, 73.3%, 18.0%, ?, 100µM*, 100µM*
> CCN(CC)c1ccc2cc(C(C)=O)c(=O)oc2c1
    ?, 65.9%, 71.2%, ?, ?, ?
> CCN(CC)c1ccc2cc(-c3nnc(-c4ccncc4)o3)c(=O)oc2c1
    ?, 23.8%, 101.4%, ?, 100µM*, 25.0%
> CCN(CC)c1ccc2cc(C(N)=O)c(=O)oc2c1
    -0.1%, -0.4%, -3.0%, ?, 7.0%, 2.8%
> CCN(CC)c1ccc2cc(C(=O)Nc3ccccn3)c(=O)oc2c1
    ?, 3.9%, 204.8%, ?, 100µM*, 12.7%
> CCN(CC)c1ccc2cc(C(N)=O)c(=N)oc2c1
    ?, 176.0%, 143.3%, ?, 89.1µM*, 89.1µM*
> O=C(NC(=S)NNC(=O)c1ccco1)c1ccc(Br)cc1
    0.9%, 3.7%, 5.0%, 2.9%, -0.1%, -2.8%
> O=C(N/N=C/C=C\c1ccccc1[N+](=O)[O-])c1cccs1
    6.0%, -6.7%, 1.8%, -4.8%, 7.0%, 8.1%
> O=C(N/N=C/C=C/c1ccc([N+](=O)[O-])cc1)c1cccs1
    25.9µM*, -9.4%, -1.1%, -6.1%, -7.8%, 9.9%
> COc1cc2ccccc2cc1C(=O)N1CC(C)CC(C)C1 (stereo unspecified)
    4.1%, -4.0%, 28.2µM*, -11.7%, 9.3%, -3.5%
> Cc1ccc2c(c1C)-c1c(ccc(C)c1C)C(=O)C2=O
    29.1µM*, -9.2%, ?, 17.2%, 13.8%, 23.5%
> CCNC(=S)Nc1ccc(N2CCCCC2)cc1
    -0.7%, 7.5%, 4.4%, 11.8%, 3.7%, 7.3%
> CCNC(=S)N/N=C/c1sc(N2CCCCC2)nc1-c1cccs1
    ?, 89.1µM*, ?, ?, 1.4%, -52.2%
> CCOC(=O)[C@]12CCC=C1N(CCC1=CCCCC1)C(=O)[C@H](CC(=O)N1CCOCC1)C2
    /, 2.0%, 3.8%, /, -0.2%, 4.1%

# Given field by field: part of the list above
> CCN(CC)c1ccc2cc(-c3nnc(-c4ccncc4)o3)c(=O)oc2c1
- Rango-impB inh = ?
- EPAC1 antagonist = 23.8%
- EPAC2 antag = 101.4%
- Rango release inh = ?
- EPAC2 agonist = 100µM*
- EPAC1 agonist = 25.0%
> CCN(CC)c1ccc2cc(C(N)=O)c(=O)oc2c1
- Rango-impB inh = -0.1%
- EPAC1 antagonist = -0.4%
- EPAC2 antag = -3.0%
- Rango release inh = ?
- EPAC2 agonist = 7.0%
- EPAC1 agonist = 2.8%
